This is a selection; strong and weak results do not stand in their true shares. Some of these compounds have results that are not shown, active ones among them. Calls of active or inactive are those of the source.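 Rule for the calls: active = interference check ratio from 0.5 to 1.5 plus GFP to RFP signal ratio inhibition reaching or exceeding a fixed threshold (cut at about 30% in these data, passing the limit was not always enough); inactive = the rest.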
test: suppressors of acrylamide-induced Pgst-4::GFP reporter in worms, primary screen, SKN-1 inhibitor project, whole organism, uHTS, GFP/RFP fluorescence ratio, strain VP596 (AID 624304); conditions: C. elegans VP596 Pgst-4::GFP/RFP ratio, 24 h, at 21.8 µM, hits give high values

SMILES	inhibition
COc1ccc(Br)c(C(=O)NCC2(N3CCCCC3)CCCCC2)c1	inactive: 13.3%
C=C(C)C#CC(O)(C(=O)OC1CCN(C)CC1)c1ccccc1 (stereo unspecified)	inactive: 7.62%
CN(C)c1cccc(C(=O)NCC2(N(C)C)CCCCC2)c1	inactive: -3.49%
CC(C)Oc1ccc(C(=O)NCC2(N(C)C)CCCCC2)cc1	inactive: 3.33%
O=C(OCCN1CCCC1)C(O)(c1ccccc1)c1ccccc1	inactive: 14.4%
O=C(OC1CN2CCC1CC2)C(CO)(c1ccccc1)c1ccccc1 (stereo unspecified)	inactive: -2.21%
COc1cccc(C(=O)NCC2(N3CCCCC3)CCCCC2)c1	inactive: -2.69%
COc1ccc(Cl)cc1C(=O)NCC1(N(C)C)CCCCC1	inactive: 8.17%
O=C(NCC1(N2CCCCC2)CCCCC1)c1cccc(Cl)c1	inactive: 4.56%
CN(C)C1(CNC(=O)c2ccc(Br)cc2)CCCCC1	inactive: 12.2%
COc1cc(C(=O)NCC2(N(C)C)CCCCC2)c([N+](=O)[O-])cc1OC	inactive: -6.97%
C=CCN1CCN(CCOC(=O)C(O)(c2ccccc2)c2ccccc2)CC1	inactive: 3.75%
O=C(NCC1(N2CCCCC2)CCCCC1)c1cc(F)c(F)cc1Cl	inactive: 19.6%
CCN1CCCC(OC(=O)C2(O)c3ccccc3C=Cc3ccccc32)C1 (stereo unspecified)	inactive: 4.18%
Cc1cc(C(=O)NCC2(N3CCCCC3)CCCCC2)ccc1[N+](=O)[O-]	inactive: 20%
O=C(NCC1(N2CCCCC2)CCCCC1)c1cccc(Br)c1	inactive: -7.53%
COc1ccc(C(=O)NCC2(N(C)C)CCCCC2)cc1	inactive: -5.05%
Cc1ccccc1C(=O)NCC1(N2CCCCC2)CCCCC1	inactive: 7.86%
CN(C)c1ccc(C(=O)NCC2(N(C)C)CCCCC2)cc1	inactive: -14.1%
CN(C)C1CCCC1OC(=O)C(O)(c1ccccc1)c1ccccc1 (stereo unspecified)	inactive: -5.51%
CC(C)N1C(=O)CC2(CCN(CCOC(=O)C(O)(c3ccccc3)c3ccccc3)CC2)C1=O	inactive: -9.74%
CCN(CC)CC(C)C(C)OC(=O)C(O)(c1ccccc1)c1ccccc1 (stereo unspecified)	inactive: 2.95%
COc1cc(SC)ccc1C(=O)NCC1(N(C)C)CCCCC1	inactive: -11.3%
Cc1ccc(C(=O)NCC2(N3CCCCC3)CCCCC2)cc1	inactive: 13.6%
O=C(NCC1(N2CCCCC2)CCCCC1)c1cc([N+](=O)[O-])ccc1Cl	inactive: 0.383%
CN1[C@@H]2CC[C@H]1CC(OC(=O)C(O)(c1ccccc1)c1ccccc1)C2 (stereo partly specified)	inactive: -2.18%

— PubChem BioAssay AID624304 (Sanford-Burnham Center for Chemical Genomics, 2012)
